What was measured:
[1] = molecular target: T1, Delta-type opioid receptor (Homo sapiens, UniProt P41143); experiment: Radioligand Dose-Displacement Binding Assay: Delta-opioid Receptor Binding Assay Procedures were conducted as follows. Radioligand dose-displacement assays used 0.3 nM [3H]-Naltrindole (Perkin Elmer, Shelton, Conn.; 33.0 Ci/mmole) with 5 ug membrane protein (Perkin Elmer, Shelton, Conn.) in a final volume of 500 ul binding buffer (5 mM MgCl2, 5% DMSO, 50 mM Trizma base, pH 7.4). Non-specific bindi
[2] = molecular target: T1, Delta-type opioid receptor; experiment: Functional Assay: Functional [35S]GTPgammaS binding assays were conducted as follows. Delta opioid receptor membrane solution was prepared by sequentially adding final concentrations of 0.026 ug/ul delta membrane protein (Perkin Elmer, Shelton, Conn.), 10 ug/mL saponin, 3 uM GDP and 0.20 nM [35S]GTPgammaS to binding buffer (100 mM NaCl, 10 mM MgCl2, 20 mM HEPES, pH 7.4) on ice. The prepared membra
[3] = molecular target: T2, Kappa-type opioid receptor (Homo sapiens, UniProt P41145); experiment: Functional Assay: Functional [35S]GTPgammaS binding assays were conducted as follows. kippa opioid receptor membrane solution was prepared by sequentially adding final concentrations of 0.026 ug/ul kippa membrane protein (in-house), 10 ug/mL saponin, 3 uM GDP and 0.20 nM [35S]GTPgammaS to binding buffer (100 mM NaCl, 10 mM MgCl2, 20 mM HEPES, pH 7.4) on ice. The prepared membrane solution (190 ul/
Mu-type opioid receptor [4] = molecular target: T3, Mu-type opioid receptor (Homo sapiens, UniProt P35372); experiment: Radioligand Dose-Displacement Binding Assay: Radioligand dose-displacement binding assays for t-opioid receptors used 0.3 nM [3H]-diprenorphine (Perkin Elmer, Shelton, Conn.), with […] membrane protein/well in a final volume of 500 ul binding buffer (10 mM MgCl2, 1 mM EDTA, 5% DMSO, 50 mM HEPES, pH 7.4). Reactions were carried out in the absence or presence of increasing concentrations of unlabel
Mu-type opioid receptor [5] = molecular target: T3, Mu-type opioid receptor; experiment: Functional Assay: [35S]GTPgammaS functional assays were conducted using freshly thawed u-receptor membranes (Perkin Elmer, Shelton, Conn.). Assay reactions were prepared by sequentially adding the following reagents to binding buffer (100 mM NaCl, 10 mM MgCl2, 20 mM HEPES, pH 7.4) on ice (final concentrations indicated): membrane protein (0.026 mg/mL), saponin (10 mg/mL), GDP (3 mM) and [35S]GTPga
[6] = molecular target: T2, Kappa-type opioid receptor; experiment: Radioligand Dose-Displacement Binding Assay: Radioligand dose displacement assays used 0.4 nM [3H]-U69,593 (GE Healthcare, Piscataway, N.J.; 40 Ci/mmole) with 15 μg membrane protein (recombinant κ opioid receptor expressed in HEK 293 cells; in-house prep) in a final volume of 200 μl binding buffer (5% DMSO, 50 mM Trizma base, pH 7.4). Non-specific binding was determined in the presence of 10 μM un; settings: sf9
[7] = molecular target: T2, Kappa-type opioid receptor; settings: sf9

Protein sequences, listed by entry. Tags and fused reporters are not part of them.
UniProt P41143, whole entry: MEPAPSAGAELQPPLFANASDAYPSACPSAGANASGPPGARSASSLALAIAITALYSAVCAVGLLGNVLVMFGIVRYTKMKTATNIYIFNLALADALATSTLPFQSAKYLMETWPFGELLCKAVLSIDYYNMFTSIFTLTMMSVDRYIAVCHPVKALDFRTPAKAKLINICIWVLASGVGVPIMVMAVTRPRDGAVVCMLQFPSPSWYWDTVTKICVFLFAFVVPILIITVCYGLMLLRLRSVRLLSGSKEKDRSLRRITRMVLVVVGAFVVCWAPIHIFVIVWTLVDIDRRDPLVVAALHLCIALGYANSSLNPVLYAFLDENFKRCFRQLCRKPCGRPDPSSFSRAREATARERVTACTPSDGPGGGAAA
UniProt P41145, whole entry: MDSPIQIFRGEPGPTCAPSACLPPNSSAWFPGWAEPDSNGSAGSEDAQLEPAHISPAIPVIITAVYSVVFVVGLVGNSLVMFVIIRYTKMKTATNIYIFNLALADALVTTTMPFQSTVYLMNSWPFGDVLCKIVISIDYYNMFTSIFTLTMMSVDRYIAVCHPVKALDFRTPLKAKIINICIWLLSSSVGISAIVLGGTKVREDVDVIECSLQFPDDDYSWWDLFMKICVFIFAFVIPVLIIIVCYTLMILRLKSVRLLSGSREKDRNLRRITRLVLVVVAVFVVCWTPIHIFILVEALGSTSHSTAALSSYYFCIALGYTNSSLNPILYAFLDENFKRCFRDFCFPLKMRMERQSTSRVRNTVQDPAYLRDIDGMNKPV
UniProt P35372, whole entry: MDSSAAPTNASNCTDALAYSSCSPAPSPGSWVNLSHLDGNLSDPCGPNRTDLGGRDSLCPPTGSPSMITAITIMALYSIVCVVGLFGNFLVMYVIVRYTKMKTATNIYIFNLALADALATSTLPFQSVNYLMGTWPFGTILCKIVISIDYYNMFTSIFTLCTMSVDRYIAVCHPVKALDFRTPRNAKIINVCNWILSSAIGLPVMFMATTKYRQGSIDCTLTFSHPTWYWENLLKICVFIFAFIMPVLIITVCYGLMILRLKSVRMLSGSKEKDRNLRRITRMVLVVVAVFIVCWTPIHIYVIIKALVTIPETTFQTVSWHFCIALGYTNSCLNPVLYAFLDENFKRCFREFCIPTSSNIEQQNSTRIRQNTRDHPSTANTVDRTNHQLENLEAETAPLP

COc1ccc2c3c1O[C@H]1[C@@]4(OC)CC[C@@]5(C[C@@H]4CSCc4ccccc4)[C@@H](C2)N(CC2CC2)CC[C@]315
Ki [1]: 81.9 nM | EC50 [2]: 176 nM

CO[C@]12CC[C@@]3(C[C@@H]1COCc1ccccc1)[C@H]1Cc4ccc(C(N)=O)c5c4[C@@]3(CCN1C)[C@H]2O5
Ki [1]: 185 nM | EC50 [3]: 13.3 nM | EC50 [2]: 86 nM

CO[C@]12CC[C@@]3(C[C@@H]1COCc1cc4ccccc4s1)[C@H]1Cc4ccc(OCCO)c5c4[C@@]3(CCN1CC1CC1)[C@H]2O5
Ki (Mu-type opioid receptor [4]): 6.29 nM | EC50 (Mu-type opioid receptor [5]): 3230 nM | EC50 [3]: 7.62 nM | EC50 [2]: 8110 nM

CO[C@]12CC[C@@]3(C[C@@H]1COCc1ccccc1)[C@H]1Cc4ccc(NS(C)(=O)=O)c5c4[C@@]3(CCN1C)[C@H]2O5
Ki [1]: 743 nM | EC50 [3]: 70.7 nM | EC50 [2]: 482 nM

CCOC(=O)CC[C@H]1[C@H](COCc2ccccc2)[C@@]23CC[C@]1(OC)[C@@H]1Oc4c(OC)ccc5c4[C@@]12CCN(CC1CC1)[C@@H]3C5
Ki (Mu-type opioid receptor [4]): 24.4 nM | EC50 (Mu-type opioid receptor [5]): 186 nM

CC[C@H](C)[C@H](N)C(=O)OC[C@H]1C[C@@]23CC[C@]1(OC)[C@@H]1Oc4c(O)ccc5c4[C@@]12CCN(CC1CC1)[C@@H]3C5
EC50 (Mu-type opioid receptor [5]): 5.04 nM

COCCOCCOCCOc1ccc2c3c1O[C@H]1[C@@]4(OC)CC[C@@]5(C[C@@H]4COCc4ccccc4)[C@@H](C2)N(CC2CC2)CC[C@]315
Ki [1]: 25.4 nM | EC50 (Mu-type opioid receptor [5]): 53.1 nM | EC50 [2]: 57.2 nM

COCCOCCOCCOCCOCCO[C@]12CC[C@@]3(C[C@@H]1COCc1ccccc1)[C@H]1Cc4ccc(OC)c5c4[C@@]3(CCN1CC1CC1)[C@H]2O5
EC50 (Mu-type opioid receptor [5]): 137 nM

CO[C@]12CC[C@@]3(C[C@@H]1COCc1ccccc1)[C@H]1Cc4ccc(F)c5c4[C@@]3(CCN1CC1CC1)[C@H]2O5
Ki [6]: 0.02 nM | EC50 [2]: 66.5 nM

CO[C@]12CC[C@@]3(C[C@@H]1COCc1ccccc1)[C@H]1Cc4ccc(OCc5nn[nH]n5)c5c4[C@@]3(CCN1CC1CC1)[C@H]2O5
Ki [1]: 470 nM | EC50 (Mu-type opioid receptor [5]): 59.9 nM | EC50 [3]: 30.4 nM | EC50 [2]: 410 nM

COCCOCCOCCO[C@]12CC[C@@]3(C[C@@H]1COCc1ccccc1)[C@H]1Cc4ccc(OC)c5c4[C@@]3(CCN1CC1CC1)[C@H]2O5
Ki (Mu-type opioid receptor [4]): 7.79 nM | EC50 (Mu-type opioid receptor [5]): 137 nM

COc1ccc2c3c1O[C@H]1[C@@]4(OC)CC[C@@]5(C[C@@H]4CS(=O)(=O)Cc4ccccc4)[C@@H](C2)N(CC2CC2)CC[C@]315
Ki (Mu-type opioid receptor [4]): 7.29 nM | EC50 (Mu-type opioid receptor [5]): 160 nM | EC50 [3]: 88.8 nM

CO[C@]12CC[C@@]3(C[C@@H]1COCc1ccccc1C)[C@H]1Cc4ccc(OCCO)c5c4[C@@]3(CCN1C)[C@H]2O5
Ki [1]: 32.2 nM | EC50 [3]: 3.94 nM | EC50 [2]: 22.2 nM

COc1ccc2c3c1O[C@H]1[C@@]4(OC)CC[C@@]5(C[C@@H]4COc4ccc(-n6ccnc6)cc4)[C@@H](C2)N(CC2CC2)CC[C@]315
Ki (Mu-type opioid receptor [4]): 15.8 nM | Ki [1]: 211 nM | Ki [6]: 31.2 nM | EC50 [2]: 5620 nM

COc1ccc2c3c1O[C@H]1[C@@]4(OC)CC[C@@]5(C[C@@H]4CSc4nncs4)[C@@H](C2)N(C)CC[C@]315
Ki (Mu-type opioid receptor [4]): 3390 nM | Ki [6]: 462 nM

COc1ccc2c3c1O[C@H]1[C@@]4(OC)CC[C@@]5(C[C@@H]4CN(Cc4ccccc4)C(C)=O)[C@@H](C2)N(CC2CC2)CC[C@]315
Ki (Mu-type opioid receptor [4]): 11.8 nM | Ki [1]: 387 nM | EC50 (Mu-type opioid receptor [5]): 22.1 nM | EC50 [2]: 128 nM

COc1ccc2c3c1O[C@H]1[C@@]4(OC)CC[C@@]5(C[C@@H]4C(C)(C)OCc4ccccc4)[C@@H](C2)N(CC2CC2)CC[C@]315
EC50 [3]: 0.28 nM

COCCOCCOCCOCCOCCOc1ccc2c3c1O[C@H]1[C@@]4(OC)CC[C@@]5(C[C@@H]4COCc4ccccc4)[C@@H](C2)N(CC2CC2)CC[C@]315
Ki [1]: 270 nM | EC50 (Mu-type opioid receptor [5]): 265 nM | Ki [6]: 10.1 nM

CCOC(=O)CC[C@H]1[C@H](COCc2ccccc2)[C@]2(OC)CC[C@]13[C@H]1Cc4ccc(OC)c5c4[C@@]3(CCN1CC1CC1)[C@H]2O5
Ki (Mu-type opioid receptor [4]): 15.1 nM | EC50 (Mu-type opioid receptor [5]): 3700 nM | EC50 [3]: 1830 nM

COc1ccc2c3c1O[C@H]1[C@@]4(OC)CC[C@@]5(C[C@@H]4COCc4ccccc4)[C@@H](C2)N(CC2CC2)CC[C@]315
Ki [1]: 15 nM | EC50 (Mu-type opioid receptor [5]): 10.8 nM | Ki [6]: 0.09 nM | EC50 [2]: 14.7 nM

COc1ccc2c3c1O[C@H]1[C@@]4(OC)CC[C@@]5(C[C@@H]4COC(=O)[C@@H](N)CC(C)C)[C@@H](C2)N(CC2CC2)CC[C@]315
Ki [1]: 151 nM | EC50 (Mu-type opioid receptor [5]): 96.5 nM | EC50 [3]: 41.8 nM

CO[C@]12CC[C@@]3(C[C@@H]1COCc1ccccc1)[C@H]1Cc4ccc(N)c5c4[C@@]3(CCN1C)[C@H]2O5
Ki [1]: 411 nM | EC50 [3]: 40.4 nM | Ki [7]: 0.28 nM

COc1ccc2c3c1O[C@H]1[C@@]4(OC)CC[C@@]5(C[C@@H]4COCc4ccccc4)[C@@H](C2)NCC[C@]315
Ki [1]: 342 nM | Ki [6]: 0.08 nM | EC50 [2]: 176 nM

CO[C@]12CC[C@@]3(C[C@@H]1COCc1ccccc1)[C@H]1Cc4ccc(F)c5c4[C@@]3(CCN1C)[C@H]2O5
Ki [1]: 92.5 nM | EC50 [3]: 22.7 nM | EC50 [2]: 67.8 nM

COc1ccc2c3c1O[C@H]1[C@@]4(OC)CC[C@@]5(C[C@@H]4C[S+]([O-])Cc4ccccc4)[C@@H](C2)N(CC2CC2)CC[C@]315 (some centres undefined)
Ki [1]: 381 nM | EC50 (Mu-type opioid receptor [5]): 50.4 nM | EC50 [2]: 231 nM

COc1ccc2c3c1O[C@H]1[C@@]4(OC)CC[C@@]5(C[C@@H]4COC(=O)[C@@H](N)Cc4ccccc4)[C@@H](C2)N(CC2CC2)CC[C@]315
EC50 [3]: 82.3 nM | EC50 [2]: 57.6 nM

COC(=O)COc1ccc(COC[C@H]2C[C@@]34CC[C@]2(OC)[C@@H]2Oc5c(OC)ccc6c5[C@@]23CCN(CC2CC2)[C@@H]4C6)cc1
Ki (Mu-type opioid receptor [4]): 19 nM | Ki [6]: 12.1 nM

COc1ccc2c3c1O[C@H]1[C@@]4(c5ccccc5)CC[C@@]5(C[C@@H]4COCc4ccccc4)[C@@H](C2)N(CC2CC2)CC[C@]315
Ki (Mu-type opioid receptor [4]): 13.1 nM | EC50 (Mu-type opioid receptor [5]): 23.5 nM | EC50 [3]: 14.6 nM

C=Cc1ccc2c3c1O[C@H]1[C@@]4(OC)CC[C@@]5(C[C@@H]4COCc4ccccc4)[C@@H](C2)N(C)CC[C@]315
Ki [1]: 174 nM | Ki [6]: 0.23 nM | EC50 [2]: 189 nM

CO[C@]12CC[C@@]3(C[C@@H]1COC(=O)[C@@H](N)Cc1ccccc1)[C@H]1Cc4ccc(O)c5c4[C@@]3(CCN1CC1CC1)[C@H]2O5
Ki [6]: 0.07 nM

COc1ccc2c3c1O[C@H]1[C@@]4(OC)CC[C@@]5(C[C@@H]4CNCc4ccccc4)[C@@H](C2)N(CC2CC2)CC[C@]315
Ki [1]: 494 nM | EC50 (Mu-type opioid receptor [5]): 50.4 nM | Ki [6]: 0.04 nM | EC50 [3]: 8.42 nM | EC50 [2]: 526 nM

CO[C@]12CC[C@@]3(C[C@@H]1COCc1ccccc1)[C@H]1Cc4ccc(O)c5c4[C@@]3(CCN1)[C@H]2O5
Ki [6]: 0.08 nM

COc1ccc2c3c1O[C@H]1[C@@]4(OC)CC[C@@]5(C[C@@H]4COCc4cccc(NC(N)=O)c4)[C@@H](C2)N(CC2CC2)CC[C@]315
Ki (Mu-type opioid receptor [4]): 29.3 nM | Ki [1]: 63 nM | EC50 [3]: 53.5 nM | EC50 [2]: 22 nM

CO[C@]12CC[C@@]3(C[C@@H]1COc1ccc(-n4ccnc4)cc1)[C@H]1Cc4ccc(O)c5c4[C@@]3(CCN1CC1CC1)[C@H]2O5
Ki [6]: 0.09 nM | EC50 [2]: 6060 nM

CCCc1cc(COC[C@H]2C[C@@]34CC[C@]2(OC)[C@@H]2Oc5c(OC)ccc6c5[C@@]23CCN(C)[C@@H]4C6)on1
Ki [1]: 3620 nM

COc1ccc2c3c1O[C@H]1[C@@]4(O)CC[C@@]5(C[C@@H]4COCc4ccccc4)[C@@H](C2)N(CC2CC2)CC[C@]315
EC50 (Mu-type opioid receptor [5]): 50.3 nM

CO[C@]12CC[C@@]3(C[C@@H]1COCc1ccccc1)[C@H]1Cc4ccc(OCC(N)=O)c5c4[C@@]3(CCN1CC1CC1)[C@H]2O5
Ki [1]: 166 nM | EC50 (Mu-type opioid receptor [5]): 12.3 nM | EC50 [2]: 66.2 nM

COc1ccc2c3c1O[C@H]1[C@@]4(OC)CC[C@@]5(C[C@@H]4CN(Cc4ccccc4)S(C)(=O)=O)[C@@H](C2)N(CC2CC2)CC[C@]315
Ki (Mu-type opioid receptor [4]): 19.4 nM | Ki [1]: 729 nM | EC50 (Mu-type opioid receptor [5]): 114 nM | EC50 [3]: 80.5 nM | EC50 [2]: 151 nM

CC[C@H](C)[C@H](N)C(=O)OC[C@H]1C[C@@]23CC[C@]1(OC)[C@@H]1Oc4c(OC)ccc5c4[C@@]12CCN(CC1CC1)[C@@H]3C5
Ki (Mu-type opioid receptor [4]): 5.42 nM | EC50 [3]: 66.4 nM

Reference: ChEMBL document CHEMBL3886452, “Buprenorphine analogs” (2015)
